This is an account of results in patent EP3954371B1, “ANTI-ACETYLCHOLINESTERASE ACTIVE COMPOSITION IN CAULIS MAHONIAE AND SCREENING METHOD THEREFOR AND APPLICATION THEREOF” (Shenzhen Institute for Drug Control (Shenzhen Testing …, priority 2019, dated 2021).

Sequences of proteins named here, by UniProt entry; tags and fusion partners are left off. Residues count along the entry.
UniProt P22303, 32-614: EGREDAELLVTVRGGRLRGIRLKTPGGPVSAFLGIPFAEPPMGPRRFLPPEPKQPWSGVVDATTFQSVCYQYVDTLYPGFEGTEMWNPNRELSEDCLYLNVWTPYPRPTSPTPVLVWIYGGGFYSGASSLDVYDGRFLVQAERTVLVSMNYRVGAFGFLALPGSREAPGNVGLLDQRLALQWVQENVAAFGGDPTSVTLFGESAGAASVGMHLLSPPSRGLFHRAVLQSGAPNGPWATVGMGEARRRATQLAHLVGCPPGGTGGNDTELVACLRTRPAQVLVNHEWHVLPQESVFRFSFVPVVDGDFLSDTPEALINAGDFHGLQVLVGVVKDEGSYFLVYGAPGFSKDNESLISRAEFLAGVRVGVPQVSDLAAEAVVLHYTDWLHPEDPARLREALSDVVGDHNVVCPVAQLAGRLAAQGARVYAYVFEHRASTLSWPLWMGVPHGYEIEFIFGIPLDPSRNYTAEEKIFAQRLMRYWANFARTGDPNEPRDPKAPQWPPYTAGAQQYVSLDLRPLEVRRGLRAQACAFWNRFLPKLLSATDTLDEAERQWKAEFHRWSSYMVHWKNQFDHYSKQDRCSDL

Test [1] deals with T1, AChE (Homo sapiens, UniProt P22303).
T1 construct: purchased Sigma
The test can be described thus: synergistic effect of combined active components (FIC) by AChE assay method. The settings on record: first compound diluted, added compounds fixed at IC30; unit not in table; read-out: IC Value (Standard Deviation) IC50 (converted). In kind it is biochemical. As for the experimental part: With reference to the method of D. Kaufmann et al. (D. Kaufmann, A.K. Dogra, A. Tahrani, F. Herrmann, M. Wink, Extracts from Traditional Chinese Medicinal Plants Inhibit Acetylcholinesterase, a Known Alzheimer's Disease Target, Molecules, 2016(21): 1161-1177.), each active monomer component was accurately weighed for 1.0 mg and dissolved with acetonitrile-water (3:7) to a concentration of 1 mg/mL. One pharmaceutical component, compound A, was selected and diluted step by step according to 1:1; the concentration of a second pharmaceutical component, compound B, was fixed to IC30; based on a size of a fractional inhibitory concentration (FIC) value, the concentration of compound A was fixed, the concentration of pharmaceutical compound B was changed, and the FIC value was determined.
Fractional effects (FEs) of the two compounds are as follows: FEA = IC50 (A+B)/IC50 (A) [formula] FEB = IC50 (A+B)/IC50 (B) [formula] FIC = FEA + FEB [formula] […]
The IC30 of active compounds A, B and C was calculated using SPSS 21.0 software, compound A was diluted stepwise and added to a 96-well plate, and then compound B with a fixed concentration of IC30 was added to the 96-well plate, which were determined by an AChE assay method, and the FIC value was also determined.
By analogy, all possible combinations were calculated. […]

Test [2] deals with T1, AChE. The format is biochemical. As for the experimental part: For the reaction system, see Table 3. The specific steps are described below.
140 µL of phosphate buffer (PBS, 0.1 mol/L, pH = 7.4), 20 µL of AChE (0.303 U/mL) and 20 µL of sample solution were added in sequence to a 96-well plate, mixed evenly, and added with 10 µL of DTNB (3.3 mM) and 10 µL of acetylthiocholine iodide (ATCI) (15 mM). They were mixed evenly and incubated for 10 min at 37 °C, then measured absorbance at 405 nm.
The sample was replaced with PBS in a blank enzyme group. The sample was replaced with PBS in a blank enzyme-free group. The enzyme solution was replaced with PBS in the sample control group.
The inhibitory rate of the sample against AChE activity is calculated by the following formula: Inhibitory rate = [1−(Asample−Asample control)/(Ablank enzyme−Ablank enzyme−free)] × 100% [formula]
The median inhibitory concentration of AChE was calculated by testing inhibitory rates at different sample concentrations. […] Table 3 Anti-AChE activity screening method

pIC50: −log10 of the molar value. Like-named read-outs stand apart in the source and are kept apart here.

For orientation: IC50 means the concentration needed to halve the response being measured. By pIC50 is commonly meant −log10 of the IC50, conventionally taken in molar units. Higher therefore signals a small IC50. `COc1ccc2cc3[n+](cc2c1OC)CCc1cc2c(cc1-3)OCO2` [Ber, berberine]: the IC50 on AChE [1] was 7.46 µM. For the same compound, on AChE [2], the negative logarithm of the IC50 (pIC50) is 5.13.
